Results published in US20220168440A1, “ANTIBODY-PYRROLOBENZODIAZEPINE DEPRIVATIVE CONJUGATE” (DAIICHI SANKYO COMPANY, LIMITED, priority 2019, published 2022).

Assays:
Type in all cases: in vivo, human
[1] = system: subcutaneously transplanted KPL-4 cells; experiment: Antitumor test (3), xenograft in female BALB/c nude mice; settings: KPL-4 xenograft
Method: (§1) Mouse: Four- to five-week-old female BALB/c nude mice (Charles River Laboratories Japan, Inc.) were habituated under SPF conditions for 4 to 7 days before being used for experiment. To the mice, sterilized pellets (FR-2, Funabashi Farms Co., Ltd.) were fed and sterilized tap water (prepared by adding 5 to 15 ppm sodium hypochlorite solution) was provided.
(§2) Assay and calculation formula: In all of the studies, the major axis and minor axis of a tumor were measured twice or three times a week by using an electronic digital caliper (CD-15CX, Mitutoyo Corp.), and the tumor volume (mm^3) was calculated. The calculation formula is as shown below.
(§3) Tumor volume (mm^3)=Major axis (mm)×[Minor axis (mm)]^2×½
(§4) Each of the antibody-drug conjugates and antibodies was diluted with 10 mM acetate buffer, 5% sorbitol, pH 5.5 (NACALAI TESQUE, INC.; ABS buffer), and a liquid volume of 10 mL/kg was intravenously administered into the tail vein. As a control group (Vehicle group), ABS buffer was administered in the same manner.
KPL-4 cells (Dr. Junichi Kurebayashi, Kawasaki Medical School, British Journal of Cancer, (1999) 79(5/6). 707-717) were suspended in Dulbecco's phosphate buffered saline (Sigma-Aldrich Co. LLC), and 1.5×10^7 cells were subcutaneously transplanted to the right flank of each female nude mouse (Day 0), and the mice were randomly grouped on Day 14. […]

[2] = system: subcutaneously transplanted JIMT-1 cells; experiment: Antitumor test (4), xenograft in female BALB/c nude mice; settings: JIMT-1 xenograft
Method: as §1, §2, §3, §4
JIMT-1 cells (DSMZ ACC 589) were suspended in physiological saline (Otsuka Pharmaceutical Factory, Inc.), and 5×10^6 cells were subcutaneously transplanted to the right flank of each female nude mouse (Day 0), and the mice were randomly grouped on Day 10. […]

[3] = system: subcutaneously transplanted NCI-N87 cells; experiment: Antitumor test (2), xenograft in female BALB/c nude mice; settings: 0.33 mg/kg i.v. tail vein on Day 4
Method: as §1, §2, §3, §4
NCI-N87 cells (ATCC CRL-5822) were suspended in Dulbecco's phosphate buffered saline (Sigma-Aldrich Co. LLC), and 1×10^7 cells were subcutaneously transplanted to the right flank of each female nude mouse (Day 0), and the mice were randomly grouped on Day 4. […]

Row | Substance | weight loss of mice ([1]; 0.4 mg/kg i.v. on Day 14) | antitumor effect (tumor volume) ([1]; 0.4 mg/kg i.v. tail vein on Day 14) | weight loss of mice ([2]; 0.4 mg/kg i.v. on Day 10) | antitumor effect (tumor volume) ([2]; 0.4 mg/kg i.v. tail vein on Day 10) | antitumor effect (tumor volume) [3]
1 | trastuzumab tesirine: trastuzumab conjugated with tesirine synthesized with reference to literature [reference compound] | No weight loss | regression of tumor was not found | No weight loss | antitumor effect was found but regression of tumor was not found | 
2 | trastuzumab: anti-HER2 antibody; light chain SEQ ID NO: 64, heavy chain SEQ ID NO: 65 [reference compound] |  |  |  |  | did not suppress tumor growth
